Source: ChEMBL document CHEMBL5316269, “Rational Design of a New RXR Agonist Scaffold Enabling Single-Subtype Preference for RXRα, RXRβ, and RXRγ” (J Med Chem, 2023)

The chains behind the UniProt entries cited, without tags or fusion partners.
UniProt Q13133, whole entry: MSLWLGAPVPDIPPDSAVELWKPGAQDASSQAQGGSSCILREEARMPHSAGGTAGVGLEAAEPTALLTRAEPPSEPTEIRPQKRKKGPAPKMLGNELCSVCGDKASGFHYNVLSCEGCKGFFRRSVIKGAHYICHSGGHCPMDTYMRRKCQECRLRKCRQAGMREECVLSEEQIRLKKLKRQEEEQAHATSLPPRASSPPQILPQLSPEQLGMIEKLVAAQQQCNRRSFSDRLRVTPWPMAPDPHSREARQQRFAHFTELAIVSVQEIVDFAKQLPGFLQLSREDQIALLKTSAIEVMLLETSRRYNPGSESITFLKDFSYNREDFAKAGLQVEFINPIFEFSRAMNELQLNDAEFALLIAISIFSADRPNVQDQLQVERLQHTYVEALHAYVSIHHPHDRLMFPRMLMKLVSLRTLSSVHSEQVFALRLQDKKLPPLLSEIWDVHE
UniProt P10826, whole entry: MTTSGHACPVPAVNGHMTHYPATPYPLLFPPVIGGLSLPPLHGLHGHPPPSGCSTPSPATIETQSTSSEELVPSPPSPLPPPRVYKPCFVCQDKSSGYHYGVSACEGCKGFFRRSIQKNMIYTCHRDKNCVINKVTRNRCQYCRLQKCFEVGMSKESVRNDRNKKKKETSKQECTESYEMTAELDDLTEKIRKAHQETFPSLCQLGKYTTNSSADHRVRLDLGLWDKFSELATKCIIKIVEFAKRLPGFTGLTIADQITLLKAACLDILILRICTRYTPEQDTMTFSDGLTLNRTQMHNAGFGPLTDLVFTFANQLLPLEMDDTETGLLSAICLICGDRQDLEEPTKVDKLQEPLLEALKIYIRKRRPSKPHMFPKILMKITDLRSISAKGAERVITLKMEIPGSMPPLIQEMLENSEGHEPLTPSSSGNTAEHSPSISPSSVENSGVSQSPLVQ
UniProt P13631, whole entry: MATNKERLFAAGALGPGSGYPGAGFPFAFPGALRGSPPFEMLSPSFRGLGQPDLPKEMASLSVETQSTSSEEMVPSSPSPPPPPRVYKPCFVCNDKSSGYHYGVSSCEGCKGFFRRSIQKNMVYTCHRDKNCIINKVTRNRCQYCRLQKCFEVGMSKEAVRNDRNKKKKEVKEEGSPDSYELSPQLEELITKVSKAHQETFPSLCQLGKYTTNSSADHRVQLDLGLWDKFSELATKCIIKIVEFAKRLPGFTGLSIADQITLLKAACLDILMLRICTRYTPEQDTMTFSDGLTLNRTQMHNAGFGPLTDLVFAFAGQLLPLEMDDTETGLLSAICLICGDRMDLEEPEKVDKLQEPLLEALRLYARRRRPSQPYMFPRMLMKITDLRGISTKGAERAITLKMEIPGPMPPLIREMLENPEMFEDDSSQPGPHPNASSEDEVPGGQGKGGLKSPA
UniProt P10276, whole entry: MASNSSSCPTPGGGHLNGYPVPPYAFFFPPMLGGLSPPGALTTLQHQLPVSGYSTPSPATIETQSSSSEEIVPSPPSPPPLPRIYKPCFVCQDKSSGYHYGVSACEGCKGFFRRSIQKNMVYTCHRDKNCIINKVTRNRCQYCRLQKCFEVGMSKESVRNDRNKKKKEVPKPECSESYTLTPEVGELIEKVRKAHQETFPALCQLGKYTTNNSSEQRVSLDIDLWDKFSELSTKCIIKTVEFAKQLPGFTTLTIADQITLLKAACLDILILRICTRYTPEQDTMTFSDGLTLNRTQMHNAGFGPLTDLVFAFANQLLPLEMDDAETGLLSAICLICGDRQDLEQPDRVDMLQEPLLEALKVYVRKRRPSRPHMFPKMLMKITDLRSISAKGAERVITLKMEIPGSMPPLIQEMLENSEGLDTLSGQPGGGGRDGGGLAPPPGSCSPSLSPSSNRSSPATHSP

Experiments:
Format in all cases: cell-based
[1] = target: T1, Vitamin D3 receptor (Homo sapiens) (UniProt P11473); test: Agonist activity at human GAL4-fused VDR LBD expressed in human HEK293T cells cotransfected with pFR-Luc and pRL-SV40 assessed as increase in luciferase activity at 30 uM incubated for 16 hrs by Dual-Glo luciferase assay relative to control
T1 sequence (whole entry): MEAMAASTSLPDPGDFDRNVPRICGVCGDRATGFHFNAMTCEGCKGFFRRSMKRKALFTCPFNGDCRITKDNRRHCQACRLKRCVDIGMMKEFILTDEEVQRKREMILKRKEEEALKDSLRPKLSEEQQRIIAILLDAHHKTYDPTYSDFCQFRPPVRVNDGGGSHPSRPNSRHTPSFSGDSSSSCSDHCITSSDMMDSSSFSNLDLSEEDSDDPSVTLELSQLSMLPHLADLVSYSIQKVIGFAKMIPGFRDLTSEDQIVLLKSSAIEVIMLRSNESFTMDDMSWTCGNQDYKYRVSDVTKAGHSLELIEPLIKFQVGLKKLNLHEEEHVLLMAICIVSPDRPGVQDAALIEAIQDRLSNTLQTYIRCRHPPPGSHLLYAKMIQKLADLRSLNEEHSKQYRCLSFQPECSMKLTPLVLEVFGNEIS

[2] = target: T2, Peroxisome proliferator-activated receptor alpha (Homo sapiens) (UniProt Q07869); test: Agonist activity at human GAL4-fused PPARalpha LBD expressed in human HEK293T cells cotransfected with pFR-Luc and pRL-SV40 assessed as increase in luciferase activity at 30 uM incubated for 16 hrs by Dual-Glo luciferase assay relative to control
T2 sequence (whole entry): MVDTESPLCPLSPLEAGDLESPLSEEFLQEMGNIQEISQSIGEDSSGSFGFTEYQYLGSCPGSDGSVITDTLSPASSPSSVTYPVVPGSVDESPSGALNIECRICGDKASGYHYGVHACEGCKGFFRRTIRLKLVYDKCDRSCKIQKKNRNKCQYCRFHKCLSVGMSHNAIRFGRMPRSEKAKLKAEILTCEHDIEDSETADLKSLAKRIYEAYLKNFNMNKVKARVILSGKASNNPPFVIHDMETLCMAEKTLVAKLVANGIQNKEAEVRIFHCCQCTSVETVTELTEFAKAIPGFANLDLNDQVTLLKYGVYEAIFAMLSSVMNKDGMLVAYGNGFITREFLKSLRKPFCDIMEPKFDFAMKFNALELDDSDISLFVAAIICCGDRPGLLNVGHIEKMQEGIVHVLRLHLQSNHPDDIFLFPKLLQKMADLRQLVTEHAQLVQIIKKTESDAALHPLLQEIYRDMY

[3] = target: Oxysterols receptor LXR-alpha (Homo sapiens) (UniProt Q13133); test: Agonist activity at human GAL4-fused LXRalpha LBD expressed in human HEK293T cells cotransfected with pFR-Luc and pRL-SV40 assessed as increase in luciferase activity at 30 uM incubated for 16 hrs by Dual-Glo luciferase assay relative to control
[4] = target: Retinoic acid receptor beta (Homo sapiens) (UniProt P10826); test: Agonist activity at human GAL4-fused RARbeta LBD expressed in human HEK293T cells cotransfected with pFR-Luc and pRL-SV40 assessed as increase in luciferase activity at 30 uM incubated for 16 hrs by Dual-Glo luciferase assay relative to control
[5] = target: T3, Bile acid receptor (Homo sapiens) (UniProt Q96RI1); test: Agonist activity at human GAL4-fused FXR LBD expressed in human HEK293T cells cotransfected with pFR-Luc and pRL-SV40 assessed as increase in luciferase activity at 30 uM incubated for 16 hrs by Dual-Glo luciferase assay relative to control
T3 sequence (whole entry): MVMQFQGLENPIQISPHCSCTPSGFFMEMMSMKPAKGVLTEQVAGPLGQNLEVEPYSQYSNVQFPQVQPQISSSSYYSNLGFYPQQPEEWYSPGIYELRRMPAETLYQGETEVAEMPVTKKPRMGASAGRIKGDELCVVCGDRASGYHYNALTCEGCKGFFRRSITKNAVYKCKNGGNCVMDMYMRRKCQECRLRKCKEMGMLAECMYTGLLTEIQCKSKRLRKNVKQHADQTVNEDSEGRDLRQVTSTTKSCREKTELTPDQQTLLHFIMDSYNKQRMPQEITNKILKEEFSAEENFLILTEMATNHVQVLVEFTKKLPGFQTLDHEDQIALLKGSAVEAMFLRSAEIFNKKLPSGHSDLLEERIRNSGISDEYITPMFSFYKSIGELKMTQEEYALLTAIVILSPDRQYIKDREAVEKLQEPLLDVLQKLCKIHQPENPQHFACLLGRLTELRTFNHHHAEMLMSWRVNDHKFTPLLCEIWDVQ

[6] = target: T4, Thyroid hormone receptor beta (Homo sapiens) (UniProt P10828); test: Agonist activity at human GAL4-fused THRbeta LBD expressed in human HEK293T cells cotransfected with pFR-Luc and pRL-SV40 assessed as increase in luciferase activity at 30 uM incubated for 16 hrs by Dual-Glo luciferase assay relative to control
T4 sequence (whole entry): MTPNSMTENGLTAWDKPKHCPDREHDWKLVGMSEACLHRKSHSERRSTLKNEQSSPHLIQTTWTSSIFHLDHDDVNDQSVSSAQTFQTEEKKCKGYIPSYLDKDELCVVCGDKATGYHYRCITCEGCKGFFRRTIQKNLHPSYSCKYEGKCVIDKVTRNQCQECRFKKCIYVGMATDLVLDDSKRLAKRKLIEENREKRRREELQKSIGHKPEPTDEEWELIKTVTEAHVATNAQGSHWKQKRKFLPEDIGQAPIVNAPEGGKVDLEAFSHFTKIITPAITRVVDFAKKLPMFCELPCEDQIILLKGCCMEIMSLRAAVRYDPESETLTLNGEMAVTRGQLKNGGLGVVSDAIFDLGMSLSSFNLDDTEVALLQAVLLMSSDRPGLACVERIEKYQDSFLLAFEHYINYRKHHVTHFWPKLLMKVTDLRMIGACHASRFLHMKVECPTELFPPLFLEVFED

[7] = target: Retinoic acid receptor gamma (Homo sapiens) (UniProt P13631); test: Agonist activity at human GAL4-fused RARgamma LBD expressed in human HEK293T cells cotransfected with pFR-Luc and pRL-SV40 assessed as increase in luciferase activity at 30 uM incubated for 16 hrs by Dual-Glo luciferase assay relative to control
[8] = target: Retinoic acid receptor alpha (Homo sapiens) (UniProt P10276); test: Agonist activity at human GAL4-fused RARalpha LBD expressed in human HEK293T cells cotransfected with pFR-Luc and pRL-SV40 assessed as increase in luciferase activity at 30 uM incubated for 16 hrs by Dual-Glo luciferase assay relative to control

Compound	Activity [1] [%]	Activity [2] [%]	Activity [3] [%]	Activity [4] [%]	Activity [5] [%]	Activity [6] [%]	Activity [7] [%]	Activity [8] [%]
Cc1ccc(OCc2ccc(CCC(=O)O)c(F)c2)c2c1CCC2	2	1	1	3	2	1	4	1
O=C(O)Cc1cccc(COc2cccc3c2CCC3)c1	3	5	1	2	2	1	1	1
